Test results published in patent publication US10072025B2, “Ethyl N-boc piperidinyl pyrazolo pyridones as Janus kinase inhibitors” (Merck Sharp & Dohme Corp., priority 2014, dated 2018).

Chains of the proteins cited; added tags and fusions are not shown. Residues count along the entry.
UniProt P23458, 875-1153: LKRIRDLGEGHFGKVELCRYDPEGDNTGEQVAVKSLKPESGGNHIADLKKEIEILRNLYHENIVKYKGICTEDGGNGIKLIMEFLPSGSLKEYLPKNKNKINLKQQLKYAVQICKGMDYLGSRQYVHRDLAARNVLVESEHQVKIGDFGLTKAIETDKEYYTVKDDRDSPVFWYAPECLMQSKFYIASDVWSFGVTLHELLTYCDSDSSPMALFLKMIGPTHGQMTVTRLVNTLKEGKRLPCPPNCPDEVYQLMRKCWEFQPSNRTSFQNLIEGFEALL
UniProt O60674, 849-1124: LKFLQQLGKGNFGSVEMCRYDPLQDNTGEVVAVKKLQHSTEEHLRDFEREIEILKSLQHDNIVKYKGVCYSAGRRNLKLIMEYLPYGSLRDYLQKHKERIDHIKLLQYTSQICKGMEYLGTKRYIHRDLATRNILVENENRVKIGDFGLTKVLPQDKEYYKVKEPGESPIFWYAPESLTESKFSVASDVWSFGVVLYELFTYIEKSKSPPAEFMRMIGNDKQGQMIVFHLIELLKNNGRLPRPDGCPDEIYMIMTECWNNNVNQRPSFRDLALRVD

Columns and labels:
JAK1 = JAK1 (Homo sapiens (Human), UniProt P23458); experiment: Jak Biochemical HTRF Assay (JAK1); details: JAK1 IC50 (nM)
Experimental: (§1) Jak Biochemical HTRF Assay Protocol
(§2) The ability of compounds to inhibit the activity of JAK1, JAK2, JAK3, and Tyk2 was measured using a recombinant purified GST-tagged catalytic domain for each enzyme (Invitrogen JAK1 #M4290, JAK2 #M4290, JAK3 #M4290, Tyk2 #M4290) in an HTRF format biochemical assay. […] The basic assay protocol is as follows: First, 250 nL of diluted compounds in DMSO were dispensed into the wells of a dry 384-well Black plate (Greiner #781076) using a Labcyte Echo 555 acoustic dispenser. Subsequent reagent additions employed an Agilent Bravo. Next, 18 μL of 1.11× enzyme and 1.11× substrate in 1× assay buffer (Invitrogen kinase buffer # PV3189, 2 mM DTT, 0.05% BSA) were added to the wells and shaken and then preincubated for 30 minutes at room temperature to allow compound binding to equilibrate. After equilibration, 2 μL of 10×ATP in 1× assay buffer was added to initiate the kinase reaction and the plates were shaken and then incubated at room temperature for 120 minutes. […] Plates were shaken and centrifuged and then incubated 60 minutes at room temperature and then read on a Perkin Elmer Envision (Xex=337 nm, λem=665 and 615 nm, TRF delay time=20 μs). HTRF signal=10,000*665 nm reading/615 nm reading. After normalization to untreated controls, the percent inhibition of the HTRF signal at each compound concentration was calculated. […]

JAK2 = JAK2 (Homo sapiens (Human), UniProt O60674); experiment: Jak Biochemical HTRF Assay (JAK2); details: JAK2 IC50 (nM)
Experimental: as §1, §2

| SMILES | IC50 (JAK1) [nM] | IC50 (JAK2) [nM] |
| --- | --- | --- |
| CCC1(n2nc(Nc3ccc(C(=O)N4CCOCC4CC(C)C)c(C)c3)c3c(=O)[nH]ccc32)CCN(C(=O)OC(C)(C)C)CC1 (single isomer, unassigned) [Example 3-18, tert-butyl 4-ethyl-4-{3-[(3-methyl-4-{[3-(2S or 2R-methylpropyl)morpholin-4-yl]carbonyl}phenyl)amino]-4-oxo-4,5-dihydro-1H-pyrazolo[4,3-c]pyridin-1-yl} piperidine-1-carboxylate] | 5.45 | 4.77 |
| CCC1(n2nc(Nc3ccc(C(=O)N4CCOCC4CC(C)C)c(C)c3)c3c(=O)[nH]ccc32)CCN(C(=O)OC(C)(C)C)CC1 (single isomer, unassigned) [Example 3-17, tert-butyl 4-ethyl-4-{3-[(3-methyl-4-{[3-(2S or 2R-methylpropyl)morpholin-4-yl]carbonyl}phenyl)amino]-4-oxo-4,5-dihydro-1H-pyrazolo [4,3-c]pyridin-1-yl} piperidine-1-carboxylate] | 5.33 | 3.92 |
